Values quoted from earlier work in patent US7981605B2, “Epidermal growth factor receptor mutations” (Amgen Inc., priority 2005, dated 2011).

Tested on: NSCLC tumors with EGFr mutations
Settings: deletions in amino acids 746-759 region, L858R, L861Q, G719C, G719S, R776C/L858R (Lynch, Paez, Pao 2004)

Structure (SMILES): COc1cc2ncnc(Nc3ccc(F)c(Cl)c3)c2cc1OCCCN1CCOCC1 [gefitinib]
- sensitivity of NSCLC tumors with EGFr mutations: display sensitivity
